Experimental data as given in US20230082611A1, “COMPOSITIONS AND METHODS FOR THE TREATMENT OF RESPIRATORY SYNCYTIAL VIRUS” (Cidara Therapeutics, Inc., priority 2019, published 2023).
Where two headings read alike, the source gives them in different places.

Tested on: RSV Long strain
Experiment: RSV microneutralization assay, RSV Long strain
Format: cell-based
Settings: human respiratory syncytial virus, read-out: RSV Long EC50
Method: HEp-2 cells (ATCC #CCL-23) were seeded at 5E4/well/200 μL in DMEM (Fisher cat #11965118) supplemented with 10% heat-inactivated (HI) fetal bovine serum (HI-FBS; Fisher cat #10-082-147), 1× penicillin-streptomycin (P/S, 100 μg/mL; Fisher cat #MT30002C), and 1× L-glutamine (L-Gln, 2 mM; Fisher cat #25030-164) in 96-well tissue culture treated plates (Fisher cat #08-772-17) and incubated overnight at 37° C. and 5% CO2. Duplicate 10-fold serial dilutions of compound in DMEM with 2% HI-FBS, 1× P/S, 2 mM L-Gln were prepared in 96-well tissue culture plates at 60 μL/well. The RSV Long strain (RetroVirox, San Diego), RSV A2 strain (Virapur, San Diego), RSV B1 strain (RetroVirox, San Diego), or RSV strain CH18537 (RetroVirox, San Diego), were diluted in DMEM with 2% HI-FBS, 1× P/S, 2 mM L-Gln and 60 μL/well added to 60 μL compound for a multiplicity of infection (MOI) of 0.002 (Long, A2), 0.003 (B1), or 0.004 (CH18537). Virus only (no drug) and cells only (no virus, no drug) controls were included on each plate. The compound-virus mix was incubated for 1 h at 37° C. and 5% CO2. […] Absorbance was read at 450 nm with an EnSpire multimode plate reader (PerkinElmer). The mean A450 for the cells only control was subtracted from all A450 values, and the percent virus neutralisation calculated for each compound concentration, relative to the virus only control.

Compound	EC50 (144 h, MOI 0.002, HEp-2 cells, day 6) [nM]	EC50 (HEp-2, 144 h) [nM]
C#CCOCCOCCNC(=N)N[C@H]1CCN(c2nc3cc([C@@H]4CCCCN4C(=O)c4cc(Cl)ccc4NS(C)(=O)=O)nn3cc2C)C1 [Int-6]	150	–
C#CCOCCOCCOCCOCCOCCOCCOCCOCCOCCOCCOCCOCCCCN[C@H]1CCN(c2nc3cc([C@@H]4CCCCN4C(=O)c4cc(Cl)ccc4NS(C)(=O)=O)nn3cc2C)C1 [Int-28]	–	150
